Experimental data reported in patent publication US6251605A, “Yeast cells having mutations in Cav1 and uses therefor” (priority 1999, dated 2001).

Sequences of proteins named here, by UniProt entry; tags and fusion partners are left off. A change or cut given only in a name is not applied to a line headed by its entry.
UniProt P30874: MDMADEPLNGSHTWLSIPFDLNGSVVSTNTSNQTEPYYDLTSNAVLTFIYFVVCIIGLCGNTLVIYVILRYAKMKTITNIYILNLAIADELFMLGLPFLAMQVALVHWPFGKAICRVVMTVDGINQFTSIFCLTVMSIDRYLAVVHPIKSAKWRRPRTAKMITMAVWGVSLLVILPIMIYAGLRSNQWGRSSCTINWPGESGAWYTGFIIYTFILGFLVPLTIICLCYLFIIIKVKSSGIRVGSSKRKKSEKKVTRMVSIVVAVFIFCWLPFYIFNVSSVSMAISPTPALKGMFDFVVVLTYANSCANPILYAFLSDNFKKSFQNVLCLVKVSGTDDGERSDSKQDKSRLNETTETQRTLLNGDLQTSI
UniProt P32745: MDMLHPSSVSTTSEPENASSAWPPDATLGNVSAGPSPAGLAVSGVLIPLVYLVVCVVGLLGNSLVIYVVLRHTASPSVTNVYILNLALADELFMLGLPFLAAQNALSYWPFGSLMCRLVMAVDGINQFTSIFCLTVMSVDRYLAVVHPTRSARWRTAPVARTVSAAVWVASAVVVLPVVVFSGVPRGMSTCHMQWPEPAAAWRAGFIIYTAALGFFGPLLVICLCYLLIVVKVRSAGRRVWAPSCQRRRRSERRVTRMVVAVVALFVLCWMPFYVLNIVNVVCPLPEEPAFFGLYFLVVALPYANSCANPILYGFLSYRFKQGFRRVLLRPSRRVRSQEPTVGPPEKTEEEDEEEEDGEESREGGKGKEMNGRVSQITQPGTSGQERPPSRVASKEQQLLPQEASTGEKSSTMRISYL

What was measured:
[1] = molecular target: T1, somatostatin receptor 2 (SSTR2) (Homo sapiens, UniProt P30874); assay: β-galactosidase assay in yeast expressing SSTR2; format: cell-based; conditions: CY14803 (cav1) versus CY9434 (wild type), 2 hours incubation
T1 construct: expressed in transfected cells; host or cells: S. cerevisiae CY9434 (wild type) and CY14803 (cav1), plasmid Cp3776

SSTR3 receptor = SSTR3 receptor (Homo sapiens, UniProt P32745); assay: β-galactosidase assay in yeast expressing SSTR3; conditions: 2 hours incubation

somatostatin-14
increase of ligand-induced level of β-galactosidase activity in cav1 background [1]: 2-3 fold | ligand induced stimulation of the pheromone pathway (β-galactosidase activity) (SSTR3 receptor; cav1 background (CY14803)): 2 fold | ligand-induced β-galactosidase activity (SSTR3 receptor; wild type (CY9434)): negligible increase
